pIC50: −log10 of the molar value.
Key:
[1] = In vitro gastro-intestinal digestion of Biozate (artificial human gastro intestinal tract); settings: for Concentration, Original solution: Biozate original solution before digestion; for Concentration, t = 0 min: simulated gastric fluid pH 3.5, 37° C.; for Concentration, t = 60 min: end of gastric phase; for Concentration, t = 65 min: simulated intestinal fluid (pancreatin, pH 6.8); for Concentration, t = 75 min / Concentration, t = 90 min / Concentration, t = 120 min / Concentration, t = 150 min / Concentration, t = 180 min: simulated intestinal fluid
ACE = ACE (Homo sapiens, UniProt P12821); assay: ACE activity measurement with fluorogenic substrate Abz-FRK(Dnp)P-OH

Sequences of proteins named here, by UniProt entry; tags and fusion partners are left off. Residues count along the entry.
UniProt P12821, 30-1306, species assumed: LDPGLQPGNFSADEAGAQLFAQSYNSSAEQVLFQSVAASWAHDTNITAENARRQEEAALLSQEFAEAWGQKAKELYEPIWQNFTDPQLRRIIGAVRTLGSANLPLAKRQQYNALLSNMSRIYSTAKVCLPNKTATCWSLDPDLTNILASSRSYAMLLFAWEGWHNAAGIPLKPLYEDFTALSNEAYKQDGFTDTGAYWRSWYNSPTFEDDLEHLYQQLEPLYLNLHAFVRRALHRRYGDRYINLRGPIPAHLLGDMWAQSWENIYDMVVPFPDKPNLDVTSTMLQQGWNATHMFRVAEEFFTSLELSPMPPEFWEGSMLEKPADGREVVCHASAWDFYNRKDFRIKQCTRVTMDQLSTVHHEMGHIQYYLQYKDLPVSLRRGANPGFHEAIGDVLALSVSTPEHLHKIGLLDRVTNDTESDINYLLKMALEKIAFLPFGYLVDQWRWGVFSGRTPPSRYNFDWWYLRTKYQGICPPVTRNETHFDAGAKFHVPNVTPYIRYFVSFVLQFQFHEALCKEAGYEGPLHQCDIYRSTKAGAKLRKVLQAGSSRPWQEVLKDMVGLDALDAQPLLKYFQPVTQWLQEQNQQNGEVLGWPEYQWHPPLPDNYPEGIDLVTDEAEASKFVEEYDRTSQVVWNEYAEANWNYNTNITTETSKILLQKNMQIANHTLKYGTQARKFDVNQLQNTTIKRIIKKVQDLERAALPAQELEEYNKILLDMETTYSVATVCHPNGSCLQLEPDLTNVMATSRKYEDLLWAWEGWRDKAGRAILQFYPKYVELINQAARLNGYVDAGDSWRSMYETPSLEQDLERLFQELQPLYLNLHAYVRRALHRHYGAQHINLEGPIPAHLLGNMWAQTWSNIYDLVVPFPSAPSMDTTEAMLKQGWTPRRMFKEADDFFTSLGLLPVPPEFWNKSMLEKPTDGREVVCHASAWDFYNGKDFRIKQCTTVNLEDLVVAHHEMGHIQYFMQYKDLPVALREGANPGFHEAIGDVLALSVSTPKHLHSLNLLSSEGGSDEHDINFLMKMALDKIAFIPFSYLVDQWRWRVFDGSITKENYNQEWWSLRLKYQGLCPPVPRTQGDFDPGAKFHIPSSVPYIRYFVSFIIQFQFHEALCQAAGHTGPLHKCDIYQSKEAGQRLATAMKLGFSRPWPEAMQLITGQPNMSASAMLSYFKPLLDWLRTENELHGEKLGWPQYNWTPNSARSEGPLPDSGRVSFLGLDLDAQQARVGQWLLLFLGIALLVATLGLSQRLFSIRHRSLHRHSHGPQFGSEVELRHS

| Compound | Concentration, Original solution [1] [µg/mL] | resistance against GIT digestion ([1]; artificial gastro-intestinal tract) | Concentration, t = 0 min [1] [µg/mL] | Concentration, t = 60 min [1] [µg/mL] | Concentration, t = 65 min [1] [µg/mL] | Concentration, t = 75 min [1] [µg/mL] | Concentration, t = 90 min [1] [µg/mL] | Concentration, t = 120 min [1] [µg/mL] | Concentration, t = 150 min [1] [µg/mL] | Concentration, t = 180 min [1] [µg/mL] | pIC50 (ACE) |
| --- | --- | --- | --- | --- | --- | --- | --- | --- | --- | --- | --- |
| CC[C@H](C)[C@H](N)C(=O)N[C@H](C(=O)N[C@@H](C)C(=O)N[C@@H](CCC(=O)O)C(=O)N[C@@H](CCCCN)C(=O)O)[C@@H](C)CC [IIAEK] | 101 | high resistance against GIT digestion | 99 | 107 | 106 | 102 | 68 | 79 | 63 | 24 | 4.70 |
| CC[C@H](C)[C@H](N)C(=O)N1CCC[C@H]1C(=O)N[C@@H](C)C(=O)N[C@H](C(=O)N[C@@H](Cc1ccccc1)C(=O)O)C(C)C [IPAVF] | 23 | – | 24 | 30 | 6 | 0 | 0 | 0 | 0 | 0 | 3.52 |
